This experiment relates to COX-2. Put plainly: COX-2 protein, BV2 microglia, NTI164 plus celecoxib (Example 7). The conditions noted are these: Celebrex 5 uM; NTI164 7.5; Interleukin & Interferon activation =1. Type of experiment: cell-based.

As to `Cc1ccc(-c2cc(C(F)(F)F)nn2-c2ccc(S(N)(=O)=O)cc2)cc1` [Celebrex, celecoxib], the “COX-2 Protein” value came out at 0.768.

The record behind these values is patent US20250057858A1, “COMPOSITIONS AND METHODS FOR TREATING NEUROLOGICAL DISORDERS WITH COMBINATION PRODUCTS” (Neurotech International Ltd, priority 2021, published 2025).
